Source: ChEMBL document CHEMBL2177038 (J Med Chem, 2012)

Sequences of proteins named here, by UniProt entry; tags and fusion partners are left off.
UniProt P34972, whole entry: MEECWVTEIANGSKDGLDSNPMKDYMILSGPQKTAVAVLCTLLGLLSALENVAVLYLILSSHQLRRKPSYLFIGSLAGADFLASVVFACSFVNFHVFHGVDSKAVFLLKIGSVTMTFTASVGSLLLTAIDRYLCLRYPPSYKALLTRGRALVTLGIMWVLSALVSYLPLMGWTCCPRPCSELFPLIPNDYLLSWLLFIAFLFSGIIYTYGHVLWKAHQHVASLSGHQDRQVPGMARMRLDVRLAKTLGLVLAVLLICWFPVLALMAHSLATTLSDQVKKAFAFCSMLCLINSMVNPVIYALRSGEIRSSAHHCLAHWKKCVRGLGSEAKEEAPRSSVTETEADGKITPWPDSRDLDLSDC

Target: Cannabinoid receptor 2 (Homo sapiens, UniProt P34972)

CCCCCCC(C)(C)c1cc(OC)c([C@H]2C=C(CO)[C@H]3C[C@@H]2C3(C)C)c(OC)c1
EC50: 83.8 nM
